Patent US6906179 (GENERAL HOSPITAL, dated 2005)

Amino acid sequences for entries named in this document (tags omitted). A change or cut given only in a name is not applied to a line headed by its entry.
UniProt Q15797: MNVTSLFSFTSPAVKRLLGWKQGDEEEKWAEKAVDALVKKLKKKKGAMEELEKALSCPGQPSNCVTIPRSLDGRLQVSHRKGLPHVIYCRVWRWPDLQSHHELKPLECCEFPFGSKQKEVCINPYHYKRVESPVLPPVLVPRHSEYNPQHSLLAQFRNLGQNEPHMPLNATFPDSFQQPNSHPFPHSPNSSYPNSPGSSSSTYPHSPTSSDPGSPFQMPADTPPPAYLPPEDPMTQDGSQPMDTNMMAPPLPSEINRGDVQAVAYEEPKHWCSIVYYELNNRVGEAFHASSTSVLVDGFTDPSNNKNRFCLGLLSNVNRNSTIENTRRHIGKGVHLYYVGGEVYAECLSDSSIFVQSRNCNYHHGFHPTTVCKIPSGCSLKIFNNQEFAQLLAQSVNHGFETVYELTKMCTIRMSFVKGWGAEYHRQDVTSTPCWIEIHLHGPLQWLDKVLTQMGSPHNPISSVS
UniProt Q15796, whole entry: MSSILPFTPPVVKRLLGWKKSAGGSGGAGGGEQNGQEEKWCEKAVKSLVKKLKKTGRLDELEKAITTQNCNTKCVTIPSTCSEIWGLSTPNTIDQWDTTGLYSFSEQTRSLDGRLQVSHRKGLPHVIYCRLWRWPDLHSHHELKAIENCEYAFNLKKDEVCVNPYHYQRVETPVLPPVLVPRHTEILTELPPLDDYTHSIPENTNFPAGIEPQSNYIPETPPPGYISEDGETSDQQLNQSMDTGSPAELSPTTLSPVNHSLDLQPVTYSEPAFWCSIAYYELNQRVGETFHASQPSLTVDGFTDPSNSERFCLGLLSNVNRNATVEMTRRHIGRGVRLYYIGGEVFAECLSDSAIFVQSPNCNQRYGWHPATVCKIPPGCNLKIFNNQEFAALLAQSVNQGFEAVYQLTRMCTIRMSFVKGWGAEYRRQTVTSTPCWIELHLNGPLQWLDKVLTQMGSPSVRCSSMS

Assays:
[1] = molecular target: T1, LexA-Smad1L (146-270) (UniProt P0A7C2; Q15797, in part); experiment: yeast two-hybrid, X-Gal plates
T1 construct: Yeast two-hybrid LexA fusion in pEG202; also called central linker region of Smad1
Excerpt: The transformants are first streaked onto a master plate, then replicated onto two testing plates: U^-H^-W^- glucose plates with X-gal; U^-H^-W^- HW galactose/raffinose plates with X-gal.

[2] = molecular target: T2, LexA-Smad1 (full length Smad1 fused in frame to the LexA DNA binding domain (1-202) in pEG202) (UniProt P0A7C2; Q15797); experiment: yeast two-hybrid screen, LexA-Smad1 bait, human fetal brain library
T2 construct: also called Smad1pEG202; full length Smad1 bait
Excerpt: From the pooled stock of the transformants, ten million cells are screened on U^-H^-W^-L^- galactose plates containing X-gal. Only those that form blue colonies are picked as candidate positives. […] Methods of sequencing employ such enzymes as the Klenow fragment of DNA polymerase I, Sequenase® (US Biochemical Corp, Cleveland, Ohio), Taq polymerase (Perkin Elmer, Norwalk, Conn.), thermostable T7 polymerase (Amersham, Chicago, Ill.), or combinations of recombinant polymerases and proofreading exonucleases such as the ELONGASE Amplification System (Gibco BRL, Gaithersburg, Md.). Preferably, the process is automated with machines such as the Hamilton Micro Lab 2200 (Hamilton, Reno Nev.), Peltier Thermal Cycler (PTC200; MJ Research, Watertown, Mass.) and the ABI 377 DNA sequencers (Perkin Elmer). […] The transformants are first streaked onto a master plate, then replicated onto two testing plates: U^-H^-W^- glucose plates with X-gal; U^-H^-W^- HW galactose/raffinose plates with X-gal.

[3] = molecular target: Smad2 (UniProt Q15796); experiment: yeast two-hybrid

binding result [1]: no binding
binding result [2]: binds
binding result [3]: no binding
B1: B42-HsN3 fusion protein (full length HsN3 fused to the B42 activation domain in pJG4-5) (other, human, UniProt P28070 1-264, looked up, not shown: large carriers)
chain: MEAFLGSRSGLWAGGPAPGQFYRIPSTPDSFMDPASALYRGPITRTQNPMVTGTSVLGVKFEGGVVIAADMLGSYGSLARFRNISRIMRVNNSTMLGASGDYADFQYLKQVLGQMVIDEELLGDGHSYSPRAIHSWLTRAMYSRRSKMNPLWNTMVIGGYADGESFLGYVDMLGVAYEAPSLATGYGAYLAQPLLREVLEKQPVLSQTEARDLVERCMRVLYYRDARSYNRFQIATVTEKGVEIEGPLSTETNWDIAHMISGFE
notes: Isolated from a human fetal brain library; also called clone 18; S1+18
